US20100041068A1, “DEEPLY QUENCHED ENZYME SENSORS AND BINDING SENSORS” (priority 2006, published 2010)

What was measured:
[1] = test system: peptide P5, Ac-Dap(Pyr)RTGRRFSYP-amide (unphosphorylated)
[2] = test system: peptide P2, Ac-GRTGRRDap(Pyr)SYP-amide (unphosphorylated)
[3] = test system: peptide P9, Pyr-Ahx-GRTGRRFSYP-amide (unphosphorylated)

## cAMP-dependent protein kinase (PKA), murine catalytic subunit
[1]
  Km (PKA-catalysed phosphorylation, fluorescence progress curves, 30 µM 14-3-3τ): Km=1.7±0.4 µM
[2]
  Km (PKA-catalysed phosphorylation, fluorescence progress curves, 30 µM 14-3-3τ): Km=7.1±1.9 µM
[3]
  Km (PKA-catalysed phosphorylation, fluorescence progress curves, 30 µM 14-3-3τ): Km=1.6±0.9 µM
